Assays:
[1] = test system: HER2 positive cell line (NCI-N87 cell line); experiment: FACS binding assay against HER2 positive cell line; conditions: NCI-N87 cells, FIG. 7
Procedure: Fab of trastuzumab was synthesized by plasmid construction, HEK293 cell expression and purification. The Fab-tetrazine conjugate (ADC) was prepared by reacting Me-Tet-PEG9-NHS (structure shown below, purchased from SiChem; catalog No. SC-8808) to primary amines on the Fab to form stable amide bonds. The ADC was tested by flow cytometry (FACS) to compare binding to HER2 positive cells in comparison with un-conjugated Fab.
FACS binding assay of trastuzumab Fab, Fab-Me-Tet-PEG9-NHS conjugate against HER2 positive cell line: Cells (NCI-N87 cell line) cultured in RPMI1640+10% FBS were collected by centrifugation, re-suspended with FACS buffer (PBS containing 2% FBS, pH 7.4) and adjusted to density of 2E6/mL. 100 μL (2E5) of cells was seeded into a 96 well plate, centrifuged at 400 g for 5 minutes, discarded the supernatant and resuspended with serially diluted Fab solution at 1:10 ratio from a 20 μL/mL stock solution. The Ab and cells were incubated at 4° C. for 1 hour before the cells were treated by centrifugation at 400 g for 5 minutes to remove the supernatant and washed 3 times with FACS buffer (200 μL/well). […]

NCI-N87 xenograft = experiment: Efficacy study in subcutaneous NCI-N87 xenograft model in CB17 SCID mice; type: in vivo, mice (Mus musculus); conditions: Group 3: Tz-Fab 50 mpk i.v. QW×2 weeks; day 35 after grouping; vehicle 1009 mm^3
Procedure: Methods: 110 CB17 SCID female mice (Mus musculus; age: 6-8 weeks; body weight: 18-22 g; Shanghai LingChang Biotech Co., LTD) were inoculated subcutaneously at right flank with NCI-N87 cells (3×10^6 cells was suspended in 0.2 mL mixture of 1640 with (1640: Matrigel=1:1) BD Matrigel for tumor development). After 7 days inoculation, 70 animals were divided into 8 groups with 10 animals in group 1, 2, 5, 6, 7 and 8, and with 5 animals in group 3 and 4 using stratified random grouping based on their body weight and tumor volume. The treatments were started from the mean tumor size reached to 158 mm^3 (106-221 mm^3) for these 70 mice. Group 1: Vehicle, i.v., QD×3×2 weeks. Group 2: MMAE, 0.25 mpk, i.v., QW×2 weeks. Group 3: Tz-Fab, 50 mpk, i.v., QW×2 weeks. Group 4: Compound A, 20 mpk, i.v., QD×3×2 weeks. Group 5: Tz-Fab, 50 mpk, i.v., QW×2 weeks+Compound A, 20 mpk, i.v., QD×3×2 weeks. Group 6: Tz-Fab, 50 mpk, i.v., QW×2 weeks+Compound A, 5 mpk, i.v., QD×3×2 weeks. Group 7: SQL70, 100 μL, i.t.×1 dose+Compound A, 1.9 mpk, i.v., QD×5. Group 8: T-DM1, 3 mpk, i.v., QW×2 weeks. The tumor sizes and body weight were measured twice a week during the treatment. The dosing schedule was finished on day PG-D10. […]
Statistical Analysis: The tumor volume between different groups was analyzed by two-way repeated measures ANOVA followed by the Tukey's post hoc test. All data were analyzed using GraphPad Prism 6.0. […]

Tz-Fab
binding activity in comparison to un-conjugated Fab [1]: comparable or slightly reduced binding activity
mean tumor size on day 35 (NCI-N87 xenograft): 1043 mm^3

From patent US20250186592A1, “TETRAZINE CONJUGATES FOR IN VIVO TARGETED DELIVERY OF A PAYLOAD” (Tambo, Inc., priority 2021, published 2025)
